The text below walks through data of ChEMBL document CHEMBL2203054, “Synthesis and biological evaluation of a selective N- and p/q-type calcium channel agonist” (ACS Med Chem Lett, 2012).

By UniProt entry, the sequences of proteins in these tests, tags left out.
UniProt Q00975, whole entry: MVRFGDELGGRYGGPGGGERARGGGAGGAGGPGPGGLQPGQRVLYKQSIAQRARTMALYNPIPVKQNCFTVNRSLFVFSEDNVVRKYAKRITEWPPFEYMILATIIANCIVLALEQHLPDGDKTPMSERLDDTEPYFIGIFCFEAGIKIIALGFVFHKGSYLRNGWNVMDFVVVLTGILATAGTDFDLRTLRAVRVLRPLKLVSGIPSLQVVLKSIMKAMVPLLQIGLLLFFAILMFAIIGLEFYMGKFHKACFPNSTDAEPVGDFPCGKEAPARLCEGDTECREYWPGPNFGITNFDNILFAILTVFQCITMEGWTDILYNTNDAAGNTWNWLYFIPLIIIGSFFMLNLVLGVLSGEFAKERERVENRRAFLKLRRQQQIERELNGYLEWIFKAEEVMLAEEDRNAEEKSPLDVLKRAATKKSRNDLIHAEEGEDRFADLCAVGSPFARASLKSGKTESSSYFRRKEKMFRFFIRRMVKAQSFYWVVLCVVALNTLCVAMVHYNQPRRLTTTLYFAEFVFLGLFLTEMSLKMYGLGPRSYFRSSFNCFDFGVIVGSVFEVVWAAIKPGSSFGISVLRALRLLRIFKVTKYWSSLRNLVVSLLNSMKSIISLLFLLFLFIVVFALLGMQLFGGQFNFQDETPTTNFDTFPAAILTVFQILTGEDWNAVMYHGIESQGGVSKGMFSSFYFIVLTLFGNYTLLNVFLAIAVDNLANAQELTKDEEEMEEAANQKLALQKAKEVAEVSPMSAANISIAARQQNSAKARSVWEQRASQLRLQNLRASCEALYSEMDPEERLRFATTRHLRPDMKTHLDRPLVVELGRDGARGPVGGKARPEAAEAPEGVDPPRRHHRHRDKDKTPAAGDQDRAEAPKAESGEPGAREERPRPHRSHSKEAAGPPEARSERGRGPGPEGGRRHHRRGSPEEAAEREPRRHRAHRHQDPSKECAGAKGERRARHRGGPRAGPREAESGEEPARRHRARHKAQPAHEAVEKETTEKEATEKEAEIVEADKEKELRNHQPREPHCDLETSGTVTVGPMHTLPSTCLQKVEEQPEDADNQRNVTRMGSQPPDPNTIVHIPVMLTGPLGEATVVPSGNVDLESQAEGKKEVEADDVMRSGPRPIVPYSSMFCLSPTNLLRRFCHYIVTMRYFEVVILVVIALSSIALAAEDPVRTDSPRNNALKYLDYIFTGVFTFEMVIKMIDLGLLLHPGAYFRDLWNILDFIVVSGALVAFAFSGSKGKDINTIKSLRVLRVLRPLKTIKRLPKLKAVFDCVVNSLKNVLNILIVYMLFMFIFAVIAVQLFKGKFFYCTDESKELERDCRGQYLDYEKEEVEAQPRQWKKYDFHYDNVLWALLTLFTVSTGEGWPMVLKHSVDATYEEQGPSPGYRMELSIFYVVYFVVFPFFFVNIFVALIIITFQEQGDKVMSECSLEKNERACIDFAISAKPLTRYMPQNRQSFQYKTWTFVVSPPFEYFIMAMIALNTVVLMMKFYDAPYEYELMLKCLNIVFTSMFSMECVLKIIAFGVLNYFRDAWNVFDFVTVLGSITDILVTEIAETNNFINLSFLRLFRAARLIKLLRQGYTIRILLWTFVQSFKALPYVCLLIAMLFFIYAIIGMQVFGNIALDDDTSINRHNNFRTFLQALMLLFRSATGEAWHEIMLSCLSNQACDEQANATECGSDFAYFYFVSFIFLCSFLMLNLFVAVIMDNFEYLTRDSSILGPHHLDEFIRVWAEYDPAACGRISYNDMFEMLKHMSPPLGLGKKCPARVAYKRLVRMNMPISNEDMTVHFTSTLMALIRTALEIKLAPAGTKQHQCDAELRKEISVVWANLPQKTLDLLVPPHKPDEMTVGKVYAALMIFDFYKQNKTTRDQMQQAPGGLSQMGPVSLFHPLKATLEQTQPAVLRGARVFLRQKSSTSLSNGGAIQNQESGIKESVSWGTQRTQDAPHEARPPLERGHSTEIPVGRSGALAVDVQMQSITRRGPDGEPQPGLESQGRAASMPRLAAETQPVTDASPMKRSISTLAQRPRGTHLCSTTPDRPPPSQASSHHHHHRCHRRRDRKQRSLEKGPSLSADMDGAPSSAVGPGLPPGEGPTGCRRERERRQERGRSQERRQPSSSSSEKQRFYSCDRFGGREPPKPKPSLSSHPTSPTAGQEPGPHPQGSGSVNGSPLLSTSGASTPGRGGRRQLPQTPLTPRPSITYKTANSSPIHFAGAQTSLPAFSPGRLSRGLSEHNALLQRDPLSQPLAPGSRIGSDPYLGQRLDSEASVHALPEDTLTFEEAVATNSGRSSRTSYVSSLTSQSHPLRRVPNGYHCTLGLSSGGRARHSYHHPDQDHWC

The target of this assay is Voltage-dependent N-type calcium channel subunit alpha-1B (Homo sapiens, UniProt Q00975). The assay can be described thus: Agonist activity at N-type Cav2.2 channel expressed in tsA201 cell assessed as calcium current by whole-cell patch clamp method. Format: functional, cell-based.

SMILES strings stand for the structures. pEC50: −log10 of the molar value.

On to `CC[C@@H](CO)Nc1nc(NCc2ccccc2)c2ncn(C(C)C)c2n1` [(S)-ROSCOVITINE], for which the pEC50 was 3.24.
